Assay results: PubChem BioAssay AID743255 (National Center for Advancing Translational Sciences (NCATS), 2014)
This is a selection; strong and weak results do not stand in their true shares. Records with an inconclusive call do not appear. Activity calls are given as the source filed them. Calls follow the shape of the dose curve; as a rule, active = well fitted inhibition curve with a large enough effect; inconclusive = small, poorly fitted or top-dose-only effect; inactive = no such curve, though single readings can be large or run the other way.

Amino acid sequences for entries named in this document (tags omitted).
UniProt O94782, whole entry, looked up: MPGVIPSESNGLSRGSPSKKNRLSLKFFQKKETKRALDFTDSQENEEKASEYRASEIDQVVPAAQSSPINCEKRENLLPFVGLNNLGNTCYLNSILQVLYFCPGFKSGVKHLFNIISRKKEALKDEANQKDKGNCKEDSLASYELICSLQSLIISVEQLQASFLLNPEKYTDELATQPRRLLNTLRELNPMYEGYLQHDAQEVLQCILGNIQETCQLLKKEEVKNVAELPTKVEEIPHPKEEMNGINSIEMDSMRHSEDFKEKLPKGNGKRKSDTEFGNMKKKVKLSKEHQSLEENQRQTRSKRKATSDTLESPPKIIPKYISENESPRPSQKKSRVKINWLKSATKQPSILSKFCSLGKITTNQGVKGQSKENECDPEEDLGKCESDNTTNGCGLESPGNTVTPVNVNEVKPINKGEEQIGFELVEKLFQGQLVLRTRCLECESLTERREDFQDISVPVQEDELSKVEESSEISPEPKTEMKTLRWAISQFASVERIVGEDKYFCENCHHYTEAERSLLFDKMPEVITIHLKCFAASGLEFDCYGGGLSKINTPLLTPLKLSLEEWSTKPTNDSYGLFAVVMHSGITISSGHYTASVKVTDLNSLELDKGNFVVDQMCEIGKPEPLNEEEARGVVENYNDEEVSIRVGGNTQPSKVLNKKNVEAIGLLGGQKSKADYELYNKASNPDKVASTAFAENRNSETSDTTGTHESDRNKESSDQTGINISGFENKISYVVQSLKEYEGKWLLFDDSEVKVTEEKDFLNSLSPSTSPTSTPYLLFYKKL

Biological target: Ubiquitin carboxyl-terminal hydrolase 1 (Homo sapiens) (UniProt O94782)
Test: Inhibitors of USP1/UAF1: Primary Screen; also: nearly all actives have a fitted effect of over 60% in size
Conditions: recombinant USP1/UAF1, Ub-Rhodamine cleavage fluorescence; at 57.1 µM (top of the series)
From the text: Deubiquitinating enzymes (DUBs) are a class of enzymes that can cleave isopeptide bond formed between the C-terminal carboxylate of ubiquitin and a lysine side-chain amino group on the target protein. Among them, ubiquitin specific proteases (USPs) constitute the largest DUB family. Human USPs are emerging as promising targets for pharmacological intervention because of their connection to a number of human diseases, including prostate, colon and breast cancer (1, 2), pediatric acute lymphoblastic leukemia (3), and familial cylindromatosis (4). The advantage of inhibiting USPs lies in the potential specificity of therapeutic intervention that can lead to better efficacy and reduce nonspecific side effects. […] This miniaturized assay has a fluorescent read-out and is used to screen the NIH Molecular Libraries Small Molecule Repository (MLSMR) in order to identify a small molecule that inhibits USP1. […]
3 microliters of reagents (buffer in columns 3 and 4 as negative control and 1nM USP1/UAF1 complex in columns 1, 2, and 5-48) are dispensed into Greiner black solid bottom 1536-well assay plates. […] The plates are immediately centrifuged at 1000 rpm for 15 seconds, and subsequently transferred to a ViewLux high-throughput CCD imager (PerkinElmer) wherein kinetic measurements of fluorescence are acquired using 480 nm excitation/540 nm emission filter set (6 reads every 60 seconds, see Table 1). […]
% is scaled to controls: 0 for no effect and ±100 for the full control effect.

| Structure (SMILES) | activity change, negative = inhibition |
| --- | --- |
| CCC(=O)N(c1ccccc1)C1(COC)CCN(CCn2nnn(CC)c2=O)CC1 | inactive: -23.2% |
| CCC(=O)N(c1ccccc1)C1(COC)CCN(CCc2cccs2)CC1 | inactive: -13.9% |
